The subject of this experiment is pancreatic β cells. The experiment is described as follows: glucose-stimulated insulin secretion (GSIS) assay. In kind it is cell-based. The following applies: GA targeting agent-linker conjugate; GSIS assay in vitro. The method, then:
Briefly, glucose and GA targeting peptide was added at various concentrations to pancreatic β cell cultures, and insulin secretion was detected by measuring insulin levels over time. EC50 was calculated for each peptide.
The ability of these GA targeting agent-linker conjugates to stimulate […] secretion in vitro was measured using the GSIS assay described in Example 27. […] Each of these peptides contained a side-chain modified Lys residue according to the scheme illustrated in FIG. 30 at a different position.

The structures appear in SMILES notation. Where only a bound is given, the exact number is not on record here.

As a reminder, the EC50 is the concentration needed to bring the measured effect to its halfway point. Read a low EC50 as greater potency.

Consider `CC[C@H](C)[C@H](NC(=O)[C@H](Cc1ccccc1)NC(=O)[C@H](CCC(=O)O)NC(=O)[C@H](CCCCN)NC(=O)[C@@H](NC(=O)[C@H](C)NC(=O)[C@H](CCC(N)=O)NC(=O)[C@H](CCC(=O)O)NC(=O)[C@H](CCC(=O)O)NC(=O)[C@H](CC(C)C)NC(=O)[C@H](Cc1ccc(O)cc1)NC(=O)[C@H](CO)NC(=O)[C@H](CO)NC(=O)[C@@H](NC(=O)[C@H](CC(=O)O)NC(=O)[C@H](CO)NC(=O)[C@@H](NC(=O)[C@H](Cc1ccccc1)NC(=O)[C@@H](NC(=O)CNC(=O)[C@H](CCC(=O)O)NC(=O)C(C)(C)NC(=O)[C@@H](N)Cc1c[nH]cn1)[C@@H](C)O)[C@@H](C)O)C(C)C)C(C)C)C(=O)N[C@@H](C)C(=O)N[C@@H](Cc1c[nH]c2ccccc12)C(=O)N[C@@H](CC(C)C)C(=O)N[C@H](C(=O)N[C@@H](CCCCNC(=O)c1ccccc1)C(=O)NC(C)(C)C(=O)N[C@@H](CCCNC(=N)N)C(N)=O)[C@@H](C)CC`, for which the half-maximal effective concentration (EC50) is < 10 µM.

For the origin of these results see patent US20090098130A1, “GLUCAGON-LIKE PROTEIN-1 RECEPTOR (GLP-1R) AGONIST COMPOUNDS” (priority 2007, published 2009).
